Ab-14 light chain CDR variants: yeast mating affinities

From the AlphaSeq antibody data of Engelhart et al. 2022 (doi:10.1038/s41597-022-01779-4), copy in the FLAb collection.

Binding partner: SARS-CoV-2 spike HR2 peptide, sequence PDVDLGDISGINAS.

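AAYL50 was designed without a model: most single CDR substitutions and a random sample of double and triple ones. AlphaSeq pools MATa yeast showing the antibodies with MATalpha yeast showing the peptide. The frequency of each diploid, read from paired DNA barcodes, reflects how well the two displayed proteins bind. The ratio of observed to expected reads was calibrated, replicate by replicate, on BCL2-family standards whose Kd was known from biolayer interferometry. Mating was done three times.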

Ab-14 is the parent antibody, in scFv form: VH, then three GGGGS repeats, then VL. The heavy chain is unchanged in all variants.
VH: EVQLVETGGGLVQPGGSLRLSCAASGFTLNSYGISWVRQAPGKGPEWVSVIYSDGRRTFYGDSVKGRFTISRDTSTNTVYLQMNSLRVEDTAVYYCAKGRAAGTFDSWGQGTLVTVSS
VL: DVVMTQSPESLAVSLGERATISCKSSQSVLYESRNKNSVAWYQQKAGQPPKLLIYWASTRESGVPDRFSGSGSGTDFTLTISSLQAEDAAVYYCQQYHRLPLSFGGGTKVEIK

Each variant is given by its three light chain CDRs, as the data file delimits them; those of the parent are KSSQSVLYESRNKNSVA, WASTRES, QQYHRLPLS. Values are log10 of the apparent Kd in nM; lower means stronger binding. A pair that was not seen in that replicate is written "ND"; this usually means weak binding, but a binder can also be missed.

With KSSQSVLYESRNKNSVC / WASTRES / QQYHMLPRS the result was ND, 4.45, 3.99 (controls 4 of 9).
With KSGQSVLYESRNKNSVA / WASTRES / DQYHRLPLP the result was ND, ND, ND (controls 0 of 9).
With KSSQSVLYESRNPNSVA / WASTREM / QQYHWLPLS the result was 3.15, ND, ND (controls 0 of 9).
With KSSQSVLYESRNKNSFA / WASTRES / QQYHRYPLQ the result was ND, ND, ND (controls 0 of 9).
With KSSQSVRYESRNKNSVY / WASTRES / IQYHRLPLS the result was ND, 3.63, ND (controls 1 of 9).
With KSSQSVLYESRNKNSPA / WASTRES / QQQHRLPLS the result was ND, 3.42, ND (controls 0 of 9).
With KSSQSVLYESRNKNSVA / WASCMES / QQYHRLPLS the result was ND, ND, ND (controls 0 of 9).
With NSSQAVLYESRNKNSVI / WASTRES / QQYHRLPLS the result was ND, ND, ND (controls 5 of 9).
With KSAQSVLYESRNKNSVA / RAYTRES / QQYHRLPLS the result was ND, ND, ND (controls 0 of 9).
With KSSQSVLYESRSKKSVA / WASTRES / QQYHRLALS the result was 5.08, 3.82, 6.05 (controls 5 of 9).
With KSSQSVLYESRNKNSVA / WASIRES / QQYHRNPLS the result was ND, ND, ND (controls 0 of 9).
With KSSWSVLYEMRNMNSVA / WASTRES / QQYHRLPLS the result was 2.59, 2.72, 2.43 (controls 0 of 9).
With ESSQSVLYESRNLNSVS / WASTRES / QQYHRLPLS the result was 6.10, ND, ND (controls 3 of 9).
With KSSQSCLYESRPKNSVA / WASTRES / QQYPRLPLS the result was 2.79, 3.55, 3.32 (controls 1 of 9).
With KSSQDVLYESRNKNSVA / WASTRES / QQYHRLPIS the result was 0.75, 1.06, 0.96 (controls 0 of 9).
With KASQSVCYEKRNKNSVA / WASTRES / QQYHRLPLS the result was 2.43, 2.47, 2.80 (controls 3 of 9).
With KSSQSVLYESRNKNSVA / WASTFKS / QQYHRLPLS the result was 4.59, 3.98, 6.00 (controls 3 of 9).
With KSSISVYYESRNKNSVA / WASTREG / QQYHRLPLS the result was 1.58, 1.67, 1.60 (controls 1 of 9).
With KSSQSVLYESRNKNSVA / WASTRES / QQYHFLPLS the result was 2.78, 3.05, 2.04 (controls 1 of 9).
With KLSQSVLYESRNKNSVA / FASTRES / QQYLRLPLS the result was 1.35, 1.28, 1.59 (controls 2 of 9).
With TSSQSVLYESRNKNSVA / WASTAES / QQYHRLPLH the result was ND, ND, ND (controls 1 of 9).
With KSSQSVLYPSWNKNSVA / WASTNES / QQYHRLPLS the result was ND, ND, ND (controls 1 of 9).
With KSSQSVLYESRNKNSPA / WASTRES / QMYHRLPLS the result was ND, 4.89, ND (controls 2 of 9).
With KSSWSVLYESRNRNSVA / WASTREC / QQYHRLPLS the result was 2.28, 1.93, 2.13 (controls 4 of 9).
With VSSQSVLYERRNKNSVA / WCSTRES / QQYHRLPLS the result was 3.88, 3.39, 3.94 (controls 8 of 9).
With KSSQSVRYESRPKNSVA / WASTRES / QNYHRLPLS the result was ND, 4.87, 4.97 (controls 6 of 9).
With KSSQSVLYCSRNKNSVA / WASTRES / QQYHRSPLS the result was 4.38, ND, 4.47 (controls 5 of 9).
With KPSQSVLYESRNKNSVA / WASTRES / KQYHRLPSS the result was ND, 4.21, ND (controls 3 of 9).
With KCSQSVLYESRNSNSVA / WASTRES / QQYHRLPQS the result was 3.53, 3.79, ND (controls 0 of 9).
With KSSQSVLLESREKNSVA / WASTRES / QQYHRLPLS the result was ND, 3.10, 4.63 (controls 3 of 9).
With KSYQSVLYESWNKNSVA / WASTRES / QCYHRLPLS the result was ND, ND, ND (controls 1 of 9).
With KSSQSVLYESRDKNSVA / WASTRFS / QQYHRLPMS the result was 1.91, 2.00, 2.15 (controls 3 of 9).
With KSSQSVLYWSGNKNSVA / WASTREF / QQYHRLPLS the result was 1.18, 1.27, 1.15 (controls 0 of 9).

5 of these entries, quoted again:

CDR-L1,CDR-L2,CDR-L3,log10 Kd (nM) by replicate,control signals
KSSQSVLYWSGNKNSVA,WASTREF,QQYHRLPLS,"1.18, 1.27, 1.15",0 of 9
KSSQDVLYESRNKNSVA,WASTRES,QQYHRLPIS,"0.75, 1.06, 0.96",0 of 9
KSSQSVLYESRNKNSPA,WASTRES,QQQHRLPLS,"ND, 3.42, ND",0 of 9
NSSQAVLYESRNKNSVI,WASTRES,QQYHRLPLS,"ND, ND, ND",5 of 9
KPSQSVLYESRNKNSVA,WASTRES,KQYHRLPSS,"ND, 4.21, ND",3 of 9

Empty control strains, which show no peptide, gave a signal in 18% of pairings with library AAYL50; the median was 4.19 and 95% of these signals were weaker than 2.99. No background was subtracted. For each scFv, signals with the empty controls are counted beside the result. In this assay the parent's reference entry averaged 0.65; its copy inside this library read 1.68.